The test system of data set [1] is 3D EpiIntestinal™ tissue.
The test system of data set [2] is TK6 cells. Particulars: 24 h, samples across the dose range tested (four doses, not given).

Where “and” joins values, the source holds several entries; their conditions need not be identical. Equal values may be shown once. Where a name gives a salt, the structure may show the parent alone.

For the molecule `[H]/N=C(/N)N/C(=N/[H])NCCc1ccccc1` [phenformin HCl, Phenformin HCl], the genotoxicity entry in data set [1] is “no genotoxicity was detected”. For the same molecule, the cytotoxicity in data set [2] was 50% and 60% and 35% and 40%.
